Reference: patent US10544136B2, “Modulators of sphingosine phosphate receptors” (The Scripps Research Institute, priority 2008, dated 2020)

Sequences of proteins named here, by UniProt entry; tags and fusion partners are left off.
UniProt P21453, whole entry: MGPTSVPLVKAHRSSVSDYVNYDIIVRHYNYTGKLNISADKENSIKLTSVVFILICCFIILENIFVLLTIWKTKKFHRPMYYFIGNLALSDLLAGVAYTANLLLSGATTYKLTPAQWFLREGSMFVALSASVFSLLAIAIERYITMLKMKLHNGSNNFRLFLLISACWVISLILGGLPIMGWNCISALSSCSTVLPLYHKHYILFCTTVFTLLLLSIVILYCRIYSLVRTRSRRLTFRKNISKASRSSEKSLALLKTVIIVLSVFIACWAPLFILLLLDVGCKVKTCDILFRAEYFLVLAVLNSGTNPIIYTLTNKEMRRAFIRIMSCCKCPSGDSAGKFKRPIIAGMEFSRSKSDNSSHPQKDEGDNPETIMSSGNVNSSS

How the values were obtained:
[1] = biological target: T1, GFP-tagged human S1P1 receptor (S1P1-GFP) (Homo sapiens (Human), UniProt P21453); experiment: Microscopy imaging of ligand-mediated S1P1-GFP internalization in HEK-293 cells; conditions: HEK 293-S1P1-GFP cells
[2] = biological target: T1, GFP-tagged human S1P1 receptor (S1P1-GFP); experiment: Immunoprecipitation/immunoblotting for ligand-stimulated S1P1-GFP polyubiquitination in HEK-293 cells; conditions: HEK 293-S1P1-GFP cells

CCOc1ccc(-c2nc(-c3ccncc3C)no2)cc1OCC
S1P1-GFP internalization [1]: robustly induces internalization | S1P1 polyubiquination [2]: robustly induces internalization and polyubiquination
